Patent US3939204A, “Radioactive functional diagnostic agents” (priority 1972, dated 1976)

Tests used:
[1] = background statement in words; cited from earlier work
[2] = distribution in the body as function of time after intravenous administration, measured by scinticamera; conditions: humans, approximately 0.25 millicurie per injection

## bromthalein-131-iodine sodium salt [C]
[1]
  elimination from the liver: after a longer period of time
  maximum accumulation in the liver: after a longer period of time
[2]
  Time of Appearance in Gallbladder: 45 min
  Time of Appearance in Intestine: 15 min
[2]; elimination from blood into liver cells
  Blood T 1/2: 4.5 min
[2]; time of maximum accumulation
  Maximum Liver Accumulation: 30 min
